Results from ChEMBL document CHEMBL1141671, “N6-1,3-diphenylurea derivatives of 2-phenyl-9-benzyladenines and 8-azaadenines: synthesis and biological evaluation as allosteric modulators of A2A adenosine receptors” (Eur J Med Chem, 2008).

Tested on: Aorta
Assay: Vasorelaxation activity in Wistar rat endothelium-intact aortic ring assessed as inhibition of noradrenaline-induced contraction after 20 mins
Type: functional, tissue-based

CCNC(=O)[C@H]1O[C@@H](n2cnc3c(N)nc(NCCc4ccc(CCC(=O)O)cc4)nc32)[C@H](O)[C@@H]1O [CGS-21680]
Activity: Dose-dependent effect
